This series in a line: phase partitioning after 2h coupling, comparison of PEGylation methods. As to conditions: 2h. coupling period, activated PEG:lysine 305:1.

For Phenylchloroformate, the “PARTITION COEFFICIENT” value is 4.92±0.02.

The values are drawn from patent EP0714402B9, “POLYMER MODIFICATION” (PolyMASC Pharmaceuticals plc, priority 1993, dated 1995).
